From ChEMBL document CHEMBL1135657, “Novel dual inhibitors of AChE and MAO derived from hydroxy aminoindan and phenethylamine as potential treatment for Alzheimer's disease” (J Med Chem, 2002)

Sequences of proteins named here, by UniProt entry; tags and fusion partners are left off. A change or cut given only in a name is not applied to a line headed by its entry.
UniProt P22303: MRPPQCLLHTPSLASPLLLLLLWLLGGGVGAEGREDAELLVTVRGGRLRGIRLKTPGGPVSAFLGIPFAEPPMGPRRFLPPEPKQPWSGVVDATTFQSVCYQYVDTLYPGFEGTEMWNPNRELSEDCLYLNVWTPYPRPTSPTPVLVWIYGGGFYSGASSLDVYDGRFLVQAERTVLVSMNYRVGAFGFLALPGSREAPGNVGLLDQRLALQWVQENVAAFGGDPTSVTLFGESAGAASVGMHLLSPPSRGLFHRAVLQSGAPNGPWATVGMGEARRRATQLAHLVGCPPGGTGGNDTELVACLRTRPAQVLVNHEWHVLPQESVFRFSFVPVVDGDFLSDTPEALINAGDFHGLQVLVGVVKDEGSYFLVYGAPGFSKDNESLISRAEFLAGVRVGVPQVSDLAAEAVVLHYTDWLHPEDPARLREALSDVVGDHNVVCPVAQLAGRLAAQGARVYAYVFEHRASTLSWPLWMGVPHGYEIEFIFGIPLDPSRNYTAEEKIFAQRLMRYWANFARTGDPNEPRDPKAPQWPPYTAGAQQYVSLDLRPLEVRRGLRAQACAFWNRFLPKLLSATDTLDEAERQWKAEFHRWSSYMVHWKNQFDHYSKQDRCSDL
UniProt P21396, whole entry: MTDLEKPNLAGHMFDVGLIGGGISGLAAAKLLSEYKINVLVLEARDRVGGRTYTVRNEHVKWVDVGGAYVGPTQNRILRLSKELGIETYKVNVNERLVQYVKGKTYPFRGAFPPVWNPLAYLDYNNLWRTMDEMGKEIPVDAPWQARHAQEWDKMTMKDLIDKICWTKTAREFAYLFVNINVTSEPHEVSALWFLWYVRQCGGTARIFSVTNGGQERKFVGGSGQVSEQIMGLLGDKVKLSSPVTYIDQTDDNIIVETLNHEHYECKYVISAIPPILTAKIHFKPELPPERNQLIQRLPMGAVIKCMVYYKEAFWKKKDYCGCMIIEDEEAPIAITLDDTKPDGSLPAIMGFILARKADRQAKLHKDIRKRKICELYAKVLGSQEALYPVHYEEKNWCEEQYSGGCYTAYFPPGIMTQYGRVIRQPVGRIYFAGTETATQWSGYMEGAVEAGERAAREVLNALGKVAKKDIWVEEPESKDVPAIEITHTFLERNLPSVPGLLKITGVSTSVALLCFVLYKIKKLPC

Experiments:
Acetylcholinesterase = Acetylcholinesterase (Homo sapiens, UniProt P22303)
[1] = biological target: Amine oxidase [flavin-containing] A (Rattus norvegicus, UniProt P21396); test: In vitro inhibitory concentration against Monoamine oxidase A of rat brain homogenates; type: tissue-based

Structure (SMILES) | IC50 (Acetylcholinesterase) [µM] | IC50 [1] [mM]
C#CCN(C)C1CCc2cccc(OC(=O)N(C)C)c21 (configuration not stated) | 7 | 
CN(C)C(=O)Oc1ccc2c(c1)C(N(C)C)CC2 (configuration not stated) |  | 1
